{"source": "patent US20150167062A1", "about": "“Genome-wide Method of Assessing Interactions Between Chemical Entities And Their Target Molecules” (Whitehead Institute for Biomedical Research, priority 2012, published 2015)", "key": {"[1]": {"molecular_target": "BRD4's first bromodomain, BRD4(1) (Homo sapiens, UniProt O60885)"}, "[2]": {"test_system": "genome of SKMEL5 melanoma cells", "assay": "In vitro Chem-Seq of bio-JQ1 compared with Brd4 ChIP-Seq", "conditions": "DMSO as background", "procedure": "Human SK-MEL-5 cells were grown to 80% confluency with a final count of 1-2×10^8 cells for each location analysis reaction. Cells were chemically crosslinked by the addition of one-tenth volume of fresh 11% formaldehyde solution for 15 minutes at room temperature. Cells were harvested using a silicon scraper, centrifuged and the derived pellets washed three times with 1×PBS. Cell pellets were flash frozen in liquid nitrogen and stored at −80° C. prior to use.\nCells were resuspended, lysed in lysis buffers and sonicated to solubilize and shear crosslinked DNA. Sonication conditions vary depending on cells, culture conditions, crosslinking, equipment, and drug or drug candidate. A Misonix Sonicator 3000 was used and sonication was performed at power 8 for 10×30 second pulses (60 second pause between pulses). Samples were kept on ice at all times.\nThe resulting whole cell extract was incubated overnight at 4° C. (affinity purification) with 100 μl of Streptavidin Dynal (MyOne Streptavidin T1) magnetic beads that had been pre-incubated with JQ1 as follows: 5 ul of 10 mM JQ1/DMSO solution were mixed with 100 ul of Strepavidin Dynal bead suspension and incubated overnight (o.n.). Drug-bound beads were washed four times with BSA blocking solution to remove unbound drug.\nThe affinity purification was allowed to proceed overnight. […]"}, "[3]": {"molecular_target": "Bromodomain 4 (BRD4) (Homo sapiens, UniProt O60885)", "assay": "Differential scanning fluorimetry (DSF), thermal stabilisation of BRD4", "conditions": "versus DMSO and JQ1R controls"}}}
{"smiles": "Cc1sc2c(c1C)C(c1ccc(Cl)cc1)=N[C@@H](CC(=O)NCCCOCCOCCOCCCNC(=O)CCCC[C@@H]1SC[C@@H]3NC(=O)N[C@@H]31)c1nnc(C)n1-2", "values": [{"measurement": "Kd", "setting": "[1]", "result": 109, "unit": "nM"}, {"measurement": "Overlap of bio-JQ1 Chem-Seq occupancy with genome-wide Brd4 ChIP-Seq occupancy", "setting": "[2]", "result": "high degree of overlap"}, {"measurement": "Stabilisation of BRD4 against thermal unfolding (DSF)", "setting": "[3]", "result": "bind to BRD4 to make it more stable"}]}
